# Antibody variant affinities, Ab-14 heavy chain, assay B

From the AlphaSeq antibody data of Li et al. 2023 (doi:10.1038/s41467-023-39022-2), copy in the FLAb collection.

All variants were tested on one target, the spike HR2 peptide PDVDLGDISGINAS (SARS-CoV-2).

The variants keep the light chain, the linker and the frameworks of Ab-14 (scFv order VH, three GGGGS repeats, VL).
VH: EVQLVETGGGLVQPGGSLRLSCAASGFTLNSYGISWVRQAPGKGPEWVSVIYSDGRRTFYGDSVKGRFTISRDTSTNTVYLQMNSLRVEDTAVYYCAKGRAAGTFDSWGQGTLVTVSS
VL: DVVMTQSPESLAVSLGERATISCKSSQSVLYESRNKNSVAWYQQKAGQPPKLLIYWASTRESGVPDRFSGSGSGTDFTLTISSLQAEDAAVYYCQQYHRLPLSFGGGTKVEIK

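The parent was found by panning a naive human phage display library on the peptide. This is the validation round: designs drawn from the data on random variants, tested in the same kind of assay. Group labels follow the data file (Ctrl: baseline library sampled from a position-specific scoring matrix, with some repeated check sequences; Rand: our label for a block that the file lists under HC and that is probably the random mutants of the ten best first-round binders; En: ensemble of fine-tuned language models; GP: Gaussian process model; GPLM: also part of the Gaussian process libraries; HC: hill climbing; Gen: genetic algorithm; Gibbs: Gibbs sampling; a sequence that several methods proposed may carry one label only). Affinity was read by AlphaSeq, a pooled yeast mating assay with surface-displayed partners. Binding brings cells together so that they mate, and sequencing counts the barcode pairs among the diploids. The ratio of observed to expected reads was calibrated, replicate by replicate, on BCL2-family standards whose Kd was known from biolayer interferometry. Mating was done six times.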

Each variant's VH is given in full. Variants here have at most six changes. The Kd shown is the geometric mean over detected replicates; a lower Kd is a better binder. A pair that was not seen in any replicate is written "no signal"; this usually means weak binding, but a binder can also be missed. Entries are sorted by rising average, undetected variants last.

| VH | group | Kd | seen in | empty controls |
|---|---|---|---|---|
| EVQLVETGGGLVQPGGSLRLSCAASGFDLNDYGISWVRQAPGKGPEWVSVIYADGRRTFYADSVKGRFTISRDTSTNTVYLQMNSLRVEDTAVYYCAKGEVAGTFDSWGQGTLVTVSS | En_HC | 340 pM | 6/6 | 0/18 |
| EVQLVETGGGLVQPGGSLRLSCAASGFSLNDYGISWVRQAPGKGPEWVSVIYSDGKRTFYGDSVKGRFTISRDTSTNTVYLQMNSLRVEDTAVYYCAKGRQAGTFDSWGQGTLVTVSS | GP_Gibbs | 570 pM | 6/6 | 0/18 |
| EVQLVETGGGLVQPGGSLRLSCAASGFELNSYGISWVRQAPGKGPEWVSVIYSDGRRTFYGDSVKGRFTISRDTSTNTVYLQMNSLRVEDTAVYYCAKGRLAGTFDTWGQGTLVTVSS | GPLM_Gibbs | 1.4 nM | 6/6 | 0/18 |
| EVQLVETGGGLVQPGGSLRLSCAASGFTLNSYGISWVRQAPGKGPEWVSVIYADGRRTFYGDSVKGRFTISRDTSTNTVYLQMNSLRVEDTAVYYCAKGRYAGTFDSWGQGTLVTVSS | Ctrl | 1.9 nM | 6/6 | 0/18 |
| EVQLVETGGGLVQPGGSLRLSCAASGFTLNEYGISWVRQAPGKGPEWVSVIYSDGRRTFYMDSVKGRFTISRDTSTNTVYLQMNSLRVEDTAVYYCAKGREAGTFDSWGQGTLVTVSS | GPLM_HC | 2.1 nM | 6/6 | 0/18 |
| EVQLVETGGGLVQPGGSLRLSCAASGFTLNSKGISWVRQAPGKGPEWVSVIYSDGRRTFYGDSVKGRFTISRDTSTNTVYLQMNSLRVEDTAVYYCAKGRAAGTFDSWGQGTLVTVSS | Ctrl | 3.1 nM | 6/6 | 0/18 |
| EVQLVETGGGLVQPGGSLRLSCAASGFVLNQYGISWVRQAPGKGPEWVSVIYSDGRRTFYSDSVKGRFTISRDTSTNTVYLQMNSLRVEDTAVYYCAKGEAAGTFDSWGQGTLVTVSS | GP_Gibbs | 3.7 nM | 6/6 | 2/18 |
| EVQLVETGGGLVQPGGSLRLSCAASGFTLNSQGISWVRQAPGKGPEWVSVIYSDGRRTFYTDSVKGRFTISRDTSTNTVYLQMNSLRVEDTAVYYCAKGRAAGTFDSWGQGTLVTVSS | Ctrl | 4.3 nM | 2/6 | 0/18 |
| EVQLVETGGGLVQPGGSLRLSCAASGFSLNNYGISWVRQAPGKGPEWVSVIYSDGRRTFYGDSVKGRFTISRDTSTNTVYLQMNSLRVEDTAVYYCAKGMAAGTFDSWGQGTLVTVSS | GPLM_Gen | 8.1 nM | 6/6 | 0/18 |
| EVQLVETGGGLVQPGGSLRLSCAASGFGLNDYGISWVRQAPGKGPEWVSVIYSDGRRTFYHDSVKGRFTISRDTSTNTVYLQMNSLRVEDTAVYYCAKGRQAGTFDSWGQGTLVTVSS | GP_Gibbs | 8.1 nM | 6/6 | 0/18 |
| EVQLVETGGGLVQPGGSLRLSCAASGFTLNEYGISWVRQAPGKGPEWVSVIYSDGRRTFYTDSVKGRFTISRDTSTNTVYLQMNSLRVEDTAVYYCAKGFFAGTFDSWGQGTLVTVSS | Rand | 15 nM | 6/6 | 0/18 |
| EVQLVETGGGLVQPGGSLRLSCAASGFTLNQYGISWVRQAPGKGPEWVSVIYSDGRRTFYSDSVKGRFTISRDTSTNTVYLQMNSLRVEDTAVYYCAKGRAAGHFTSWGQGTLVTVSS | GPLM_HC | 24 nM | 3/6 | 0/18 |
| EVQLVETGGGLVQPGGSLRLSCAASGFDLNKYGISWVRQAPGKGPEWVSVIYSDGRRTFYGDRVKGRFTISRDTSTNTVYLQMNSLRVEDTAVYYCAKGRTAGTFDSWGQGTLVTVSS | GP_Gibbs | 33 nM | 5/6 | 0/18 |
| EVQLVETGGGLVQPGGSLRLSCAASGFTLNSEGISWVRQAPGKGPEWVSVIYSDGRRTFYDDSVKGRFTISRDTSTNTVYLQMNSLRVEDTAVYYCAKGQLAGTFDSWGQGTLVTVSS | Rand | 36 nM | 6/6 | 1/18 |
| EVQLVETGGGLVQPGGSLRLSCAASGFTLNDYGISWVRQAPGKGPEWVSVIYSDGRRTFYADSVKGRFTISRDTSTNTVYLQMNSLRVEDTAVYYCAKGRAAGTFTSWGQGTLVTVSS | GPLM_Gen | 40 nM | 6/6 | 0/18 |
| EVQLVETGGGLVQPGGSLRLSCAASGFTLNKYGISWVRQAPGKGPEWVSVIYSDGRRTFYGDSVKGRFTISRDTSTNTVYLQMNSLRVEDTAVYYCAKGRAAGTFDSWGQGTLVTVSS | Ctrl | 240 nM | 2/6 | 0/18 |
| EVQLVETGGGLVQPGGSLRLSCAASGFTLNQYGISWVRQAPGKGPEWVSVIYSDGRRTFYSDSVKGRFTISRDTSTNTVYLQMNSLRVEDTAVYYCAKGRPAGFFDSWGQGTLVTVSS | Rand | 750 nM | 2/6 | 0/18 |
| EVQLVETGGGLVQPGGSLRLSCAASGFPLNSYGISWVRQAPGKGPEWVSVIYSDGMRTFYGDSVKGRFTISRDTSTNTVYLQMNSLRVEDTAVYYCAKGRTAGTFDSWGQGTLVTVSS | GP_Gibbs | 960 nM | 1/6 | 0/18 |
| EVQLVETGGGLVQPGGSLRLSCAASGFDLNSYGISWVRQAPGKGPEWVSVIYSDGRRTFYGDSVKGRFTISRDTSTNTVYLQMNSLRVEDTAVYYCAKGRAAGFFRSWGQGTLVTVSS | GP_HC | no signal | 0/6 | 0/18 |
| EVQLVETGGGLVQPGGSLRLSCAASGFSLNSYGISWVRQAPGKGPEWVSVIYSDGRRTFYGDSVKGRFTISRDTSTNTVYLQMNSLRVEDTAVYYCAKGMKAGTFDDWGQGTLVTVSS | GP_Gibbs | no signal | 0/6 | 0/18 |
| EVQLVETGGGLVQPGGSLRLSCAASGFCLNDYGISWVRQAPGKGPEWVSVIYSDGRRTFYADSVKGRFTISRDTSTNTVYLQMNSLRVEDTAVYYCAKGRAAGTFDEWGQGTLVTVSS | GP_HC | no signal | 0/6 | 0/18 |
| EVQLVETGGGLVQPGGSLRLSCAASGFTLDSYGISWVRQAPGKGPEWVSVIYMDFRRTFYGDSVKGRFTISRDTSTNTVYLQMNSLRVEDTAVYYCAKGQAAGTALSWGQGTLVTVSS | Rand | no signal | 0/6 | 0/18 |
| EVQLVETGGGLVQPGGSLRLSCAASGFTLNEYGISWVRQAPGKGPEWVSGIYSDGFRTFYGDSVKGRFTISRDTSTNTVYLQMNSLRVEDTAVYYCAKIRAAGTFDSWGQGTLVTVSS | Ctrl | no signal | 0/6 | 0/18 |
| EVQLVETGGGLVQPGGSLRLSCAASGFQLNDYGISWVRQAPGKGPEWVSVIYSDGRRTFYGDSVKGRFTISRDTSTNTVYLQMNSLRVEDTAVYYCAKGRMAGTFISWGQGTLVTVSS | GP_HC | no signal | 0/6 | 0/18 |
| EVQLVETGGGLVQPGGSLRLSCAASGFNVNSYGISWVRQAPGKGPEWVSVIYSDGRRTFYGDSVKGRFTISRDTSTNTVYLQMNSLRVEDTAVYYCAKGWAASTFDSWGQGTLVTVSS | Ctrl | no signal | 0/6 | 0/18 |
| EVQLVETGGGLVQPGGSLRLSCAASGFSLNSYGISWVRQAPGKGPEWVSVIYSDGKRTFYADSVKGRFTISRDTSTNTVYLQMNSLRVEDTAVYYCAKTRAAGTFDSWGQGTLVTVSS | Ctrl | no signal | 0/30 | 1/90 |

The first 4 variants above that were never detected:

| VH | group | Kd | seen in | empty controls |
|---|---|---|---|---|
| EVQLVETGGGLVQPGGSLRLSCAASGFDLNSYGISWVRQAPGKGPEWVSVIYSDGRRTFYGDSVKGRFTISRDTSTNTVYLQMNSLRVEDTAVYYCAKGRAAGFFRSWGQGTLVTVSS | GP_HC | no signal | 0/6 | 0/18 |
| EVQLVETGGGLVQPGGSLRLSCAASGFSLNSYGISWVRQAPGKGPEWVSVIYSDGRRTFYGDSVKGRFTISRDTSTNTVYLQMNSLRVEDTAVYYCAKGMKAGTFDDWGQGTLVTVSS | GP_Gibbs | no signal | 0/6 | 0/18 |
| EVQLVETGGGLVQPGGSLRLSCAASGFCLNDYGISWVRQAPGKGPEWVSVIYSDGRRTFYADSVKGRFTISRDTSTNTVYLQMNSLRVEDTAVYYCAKGRAAGTFDEWGQGTLVTVSS | GP_HC | no signal | 0/6 | 0/18 |
| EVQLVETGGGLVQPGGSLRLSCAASGFTLDSYGISWVRQAPGKGPEWVSVIYMDFRRTFYGDSVKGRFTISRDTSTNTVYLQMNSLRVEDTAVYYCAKGQAAGTALSWGQGTLVTVSS | Rand | no signal | 0/6 | 0/18 |

A sequence that the file lists under several names has all its replicates pooled. The parent sequence was in this pool as ten entries: three were never detected, three once, and four in most replicates, with averages from 2.2 nM to 240 nM. Values of this round are not directly comparable with the first-round values of the same sequences. The authors' rule: three or more of the six replicates give a measured affinity, fewer mean a poor binder. Empty control strains, which show no peptide, gave a signal in 1% of pairings with all heavy chain designs; the median was 120 nM and 95% of these signals were weaker than 7.0 nM. No background was subtracted. For each scFv, signals with the empty controls are counted beside the result.